The values below come from PMC9933440 (Crystal Growth & Design, 2022).

The nature of data set [1]: Solubility experiments in sodium phosphate buffer pH 6.5, 37 °C (HPLC). How it is done:
Solubility experiments were conducted in sodium phosphate buffer solutions at pH 6.5 and 37 °C to simulate intestinal physiological conditions. For each experiment, an excess crystalline solid was sieved through a 300 μm sieve and introduced into a flask with a screw top containing 100 mL of the medium. The solution was stirred at 200 rpm using a magnetic stir bar for 48 h to reach the equilibrium state. […] After each sampling, the volume of the liquid removed from the suspension was not compensated. The withdrawn suspension was filtered through 0.2 μm nylon filters and diluted prior to high-performance liquid chromatography (HPLC) analysis. The solubility experiment for each crystal form was repeated in triplicate. After the last sample collection, the remaining solid material in the suspension was filtered, dried, and characterized by IR and PXRD.
A C18 HPLC column (YMC-Pack ODS-A column, 4.6 mm × 250 mm, 5 μm) with a flow rate of 1 mL min^–1 was employed, and the column temperature was set at 25 °C. The binary mobile phase consisted of acetonitrile and sodium phosphate buffer (pH 6.5) in a volume ratio of 25:75. The samples were diluted appropriately with the mobile phase, and the absorbance was measured at 347 nm.

The conditions of data set [2]: pH 1.2; cited from earlier work.

With `C1CNCCN1.Cc1cnc(NC(=O)C2=C(O)c3ccccc3S(=O)(=O)N2C)s1.Cc1cnc(NC(=O)C2=C(O)c3ccccc3S(=O)(=O)N2C)s1` [MEL-PPZ], the “dissolved MEL” value in data set [1] (highest dissolved concentration, sodium phosphate buffer pH 6.5, 37 °C) was 0.28 ± 0.03 mg mL^–1. Moreover, the “apparent solubility compared with the pure API” value in data set [1] (pH 6.5) is “higher solubility at pH 6.5”. In addition, the “dissolved MEL, times higher than that of the pure MEL” value in data set [1] (pH 6.5, 37 °C) is on record as 3.3 times.
Consider `CN1C(C(=O)Nc2ccccn2)=C(O)c2ccccc2S1(=O)=O.COC(=O)c1ccc(O)cc1` [PRM methylparaben], for which, in data set [2], the “solubility vs parent API” value was “no solubility and IDR advantages”.
